The experiment concerns the target human neutrophil elastase (HNE) (Homo sapiens (Human), UniProt P08246). Description: In vitro HNE inhibition assay. In kind it is biochemical. The procedure: B-1. In Vitro HNE Inhibition Assay
The potency of the compounds of the invention is ascertained in an in vitro inhibition assay. The HNE-mediated amidolytic cleavage of a suitable peptide substrate leads in this connection to an increase in the fluorescent light. The signal intensity of the fluorescent light is directly proportional to the enzyme activity.
Enzyme ([…]; from Serva, Heidelberg) and substrate (20 μM MeOSuc-Ala-Ala-Pro-Val-AMC; from Bachem, Weil am Rhein) are incubated in an assay volume of in total 50 μl of assay buffer (0.1 M HEPES pH 7.4, 0.5 M NaCl, 0.1% w/v BSA, 1% v/v DMSO) in a 384-well microtiter plate in the presence and absence of the test substance at 37° C. for 2 hours. […] The IC50 values are determined by plotting the intensity of the fluorescent light against the active substance concentration.

Sequences of proteins named here, by UniProt entry; tags and fusion partners are left off. Residues count along the entry.
UniProt P08246, 30-267: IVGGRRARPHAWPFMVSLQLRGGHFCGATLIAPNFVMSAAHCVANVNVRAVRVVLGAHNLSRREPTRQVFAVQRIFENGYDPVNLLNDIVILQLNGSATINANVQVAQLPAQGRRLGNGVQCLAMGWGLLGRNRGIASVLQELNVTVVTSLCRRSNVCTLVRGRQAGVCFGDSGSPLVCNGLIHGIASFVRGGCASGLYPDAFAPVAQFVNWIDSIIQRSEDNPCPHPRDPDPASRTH

Results on 1 compound are retold here after patent US9174997B2, “4-(4-cyano-2-thioaryl)dihydropyrimidinones and use thereof” (Bayer Intellectual Property GmbH, priority 2007, dated 2015).

Structures are written as SMILES. pIC50: −log10 of the molar value.

In the case of `CC1=C(C#N)[C@@H](c2ccc(C#N)cc2S(C)(=O)=O)N(C)C(=O)N1c1cccc(C(F)(F)F)c1` [Example 33, (4S)-4-[4-Cyano-2-(methylsulfonyl)phenyl]-3,6-dimethyl-2-oxo-1-[3-(trifluoromethyl)phenyl]-1,2,3,4-tetrahydropyrimidine-5-carbonitrile], the pIC50 (as a rule, the negative decadic logarithm of the IC50, by convention in mol/L) was above 9.52.
